## scFv variants of Ab-14 (light chain) against a SARS-CoV-2 spike peptide

All variants were tested on one target, the spike HR2 peptide PDVDLGDISGINAS (SARS-CoV-2).

Ab-14 is the parent antibody, in scFv form: VH, then a 15-residue (Gly4Ser)3 linker, then VL. The heavy chain is unchanged in all variants.
VH: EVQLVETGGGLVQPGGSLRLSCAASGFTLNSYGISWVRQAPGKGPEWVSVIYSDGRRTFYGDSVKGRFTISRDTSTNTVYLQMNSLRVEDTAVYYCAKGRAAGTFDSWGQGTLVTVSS
VL: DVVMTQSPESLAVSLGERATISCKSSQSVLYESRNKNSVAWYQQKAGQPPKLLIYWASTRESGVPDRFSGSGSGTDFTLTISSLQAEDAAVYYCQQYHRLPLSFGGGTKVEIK

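The parent was found by panning a naive human phage display library on the peptide. This is the validation round: designs drawn from the data on random variants, tested in the same kind of assay. Group labels follow the data file (Ctrl: baseline library sampled from a position-specific scoring matrix, with some repeated check sequences; Rand: our label for a block that the file lists under HC and that is probably the random mutants of the ten best first-round binders; En: ensemble of fine-tuned language models; GP: Gaussian process model; HC: hill climbing; Gen: genetic algorithm; Gibbs: Gibbs sampling; a sequence that several methods proposed may carry one label only). The assay is AlphaSeq: two haploid yeast populations carry antibody and antigen on their surface. Pairs that bind mate more often; barcode pairs of the diploids are counted by sequencing. The ratio of observed to expected reads was calibrated, replicate by replicate, on BCL2-family standards whose Kd was known from biolayer interferometry. The assay was run in six technical replicates.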

The parent's light chain CDRs are KSSQSVLYESRNKNSVA, WASTRES, QQYHRLPLS; each variant's own CDRs replace them letter for letter. Each Kd is an estimate from the mating assay, the geometric mean of the replicates in which the pair was seen; lower is stronger. An entry "not detected" has no value in the source: the pair was not observed among the diploids in any replicate. This suggests poor binding but is not conclusive. Entries are sorted by rising average, undetected variants last. Empty control strains, which show no peptide, gave a signal in 4% of pairings with all light chain designs; the median was 430 nM and 95% of these signals were weaker than 38 nM. No background was subtracted. The authors averaged sequences with at least three values out of six and counted those with two or fewer as poor binders. Values of this round are not directly comparable with the first-round values of the same sequences.

CDR-L1	CDR-L2	CDR-L3	group	Kd	replicates with signal
KVQQSDLYESRNKNSVA	EASTRES	QQYHRLPLS	GP_Gen	420 pM	6/6
KLSQSYLYESRNKNSVA	NASQREQ	QQYHRLPLS	GP_Gen	520 pM	6/6
KLEQSMEYESRNKNSVA	NASTRES	QQYHRLPLS	GP_Gen	530 pM	6/6
KSSISYLIESRNKNSVA	EASTRES	QQYHRLPLS	GP_HC	530 pM	6/6
HLSQSVWQESRNKNSVA	EASQRER	QQYHRLPLS	GP_Gibbs	630 pM	6/6
KMSMSVLYEDRNQNSVA	SASQRLD	QQYHRLPLS	GP_Gibbs	630 pM	6/6
KFSQSELYESRNQNSVA	GASTRLE	QQYHRLPLS	GP_Gibbs	650 pM	6/6
KISQSYLGESRNVNSVA	NASTRES	QQYHRLPLS	GP_Gibbs	700 pM	6/6
VLSASELYEDRPKNSVA	NASTRES	QQYHRLPLS	GP_Gibbs	720 pM	6/6
KLSQSVLYESRNKWSVA	DASTRES	QQYHRLPLS	GP_Gen	780 pM	6/6
KLSQDYCYGDRNKNSVA	QASTREQ	QQYHRLPLS	GP_Gibbs	1.0 nM	6/6
KLSQSLLYESRNKNSVA	NASTRES	QQYHRLPLS	GP_Gen	1.0 nM	6/6
KLSQSMLYESRNKNSVA	NASTRES	QSYHRLPLS	GP_Gen	1.2 nM	6/6
KLQMSHGYESRMKNSVA	QASQREE	QQYHRLPLS	GP_Gibbs	1.3 nM	6/6
KLRQSTLYESRNPNSVA	DASTRES	QQYHRLPLS	GP_HC	1.4 nM	6/6
HSSPSVAYESRNKNSVA	AASTRES	QQYHRLPLS	GP_HC	1.6 nM	6/6
HLYEAMQTGKLRTSAIA	DVNQQMR	QQYNRLPLM	En_Gibbs	2.1 nM	6/6
KISQSQLYESENKNSVA	HASTREL	QQYHRLPLT	Ctrl	2.1 nM	6/6
KSGQGVLYESRNKNSVA	GASQRYS	QQYHRLPLS	GP_HC	2.3 nM	6/6
KLVQSELYESRVKNNVA	AASQRES	QQYHRLPLS	GP_Gibbs	2.3 nM	6/6
KLSQSVNMTGKNKNSVA	ELSFREA	QQYERLPLS	En_HC	2.7 nM	3/6
KIYQAMHTLSQHKDNVA	DVNERGS	QQYYRLPLS	En_Gen	3.1 nM	6/6
KLSQEVLMGDRNKNSVA	KASTRLS	QQYHRLPLS	GP_Gibbs	3.3 nM	6/6
KLSQSWLYESRNCNSVA	NASTRES	QQYHRLPLS	GP_Gen	3.3 nM	6/6
KSCISVLYESRDKNSVA	QASTRES	QQYHRLPLS	Ctrl	3.4 nM	6/6
HLSDTVMQGSYYRNSVA	QEQTRAD	QQYHRLPLS	En_HC	3.5 nM	6/6
SISMLLNFESKRGNNVA	QMETRVN	QQYDRLPLS	En_Gen	3.7 nM	6/6
KLSPSVMGWMRNKNSVA	NASTRMS	QQYHRLPLS	GP_Gibbs	4.0 nM	6/6
SLMQVGGYESNNHNSIA	DLRTRER	QQYHRLPLS	En_HC	4.6 nM	6/6
MISQMEAPAGQQESSIA	HGGTKSE	QQYNRLPLA	En_Gibbs	5.3 nM	1/6
KISMLLNMTFQQSNNVA	EMATREK	QQYNRLPLS	En_Gen	5.9 nM	6/6
IVSQLMLWGMHAKNSIA	EAETRIN	QQYVRLPLF	En_Gen	9.3 nM	2/6
KLRQSVHIESFNKNNVA	EMTTRES	QSYDRLPLS	En_HC	11 nM	6/6
TISQMTSLFSQSINSVA	EVSMREE	QQYDRLPLI	En_Gen	14 nM	6/6
KMSQSVLYESRNKNSVA	WASTRDS	QQYHRLPLS	Ctrl	16 nM	6/6
KVQMLGCMLSRNKNSVA	HASTRES	QQYHRLPLS	GP_Gibbs	18 nM	6/6
KSSQSVLYESQEKNSVA	WASTREP	QQYHRLPLS	Ctrl	20 nM	6/6
KLSQSVLYEARNKNSVA	WASTRES	QQYHRLPLS	Ctrl	22 nM	6/6
MFSDLVKMGSRNTNSVA	DNSTRGS	QQYDRLPLS	En_HC	22 nM	6/6
KLMPSWEYESRNKNSVA	EASVREE	QQYHRLPLS	GP_Gibbs	23 nM	6/6
KSSQKVLYESRNKNSVA	WASTRES	QQYARLPLV	Ctrl	28 nM	2/6
KLRVMTLTEGYFKNSVA	QASTREN	QSYHRLPLS	En_HC	29 nM	6/6
KLRQVTGYESYNRNSVA	QTSTRAS	QDYHRLPLS	En_HC	38 nM	6/6
TISQSFLMENQFKNSVA	QASTRET	QCYDRLPLS	En_HC	42 nM	6/6
KSSQSVLYESQNKNSVA	WAHTRES	QQYHRLPLS	Ctrl	53 nM	5/6
KSSQSVLYEGRNKNSVA	WASTRES	QQYHMLPLS	Ctrl	71 nM	6/6
KLSDNQEGQYNKGQSVA	EASEVCI	QQFYRLPLV	En_Gibbs	74 nM	4/6
KSQQSVLQESRNKNSVA	WASTRAS	QLYSRLPLS	Ctrl	89 nM	5/6
KLQSEALGGNQSTSSVA	GNSVAMP	QQYERLPLD	En_Gibbs	1.1 µM	2/6
KCSQSVLAESGNKNSVA	WASTRES	QQTARLPLS	Ctrl	not detected	0/6
KLRQTTLYEPGSKNSVA	WKSTRES	QQYHRLPPS	Rand	not detected	0/6

Source: Li et al. 2023 (doi:10.1038/s41467-023-39022-2), MIT Lincoln Laboratory and A-Alpha Bio; data file from the FLAb repository.